Measurements published in ChEMBL document CHEMBL5725752, “1-pyridazin-/triazin-3-yl-piper(-azine)/idine/pyrolidine derivatives and compositions thereof for inhibiting the activity of SHP2” (2018).

Protein sequences, listed by entry. Tags and fused reporters are not part of them.
UniProt Q06124, whole entry: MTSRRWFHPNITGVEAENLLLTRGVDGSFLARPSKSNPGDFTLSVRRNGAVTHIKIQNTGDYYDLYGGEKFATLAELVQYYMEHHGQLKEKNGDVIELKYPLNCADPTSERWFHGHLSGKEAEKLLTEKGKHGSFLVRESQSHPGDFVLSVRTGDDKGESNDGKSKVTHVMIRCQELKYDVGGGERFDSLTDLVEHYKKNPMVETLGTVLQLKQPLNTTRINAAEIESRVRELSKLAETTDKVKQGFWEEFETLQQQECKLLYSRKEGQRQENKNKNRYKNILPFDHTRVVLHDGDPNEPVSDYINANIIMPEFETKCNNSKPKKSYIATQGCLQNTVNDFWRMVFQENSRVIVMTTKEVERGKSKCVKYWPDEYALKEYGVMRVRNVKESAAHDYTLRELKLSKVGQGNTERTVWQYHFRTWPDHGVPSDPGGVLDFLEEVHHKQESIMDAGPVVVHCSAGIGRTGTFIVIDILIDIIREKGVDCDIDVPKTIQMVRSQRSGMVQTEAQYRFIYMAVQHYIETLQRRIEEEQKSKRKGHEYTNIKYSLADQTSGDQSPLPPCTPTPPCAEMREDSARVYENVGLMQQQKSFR

Molecular target: Tyrosine-protein phosphatase non-receptor type 11 (Homo sapiens, UniProt Q06124)
Experiment: SHP2 Allosteric Inhibition Assay: More specifically, the phosphatase reactions were performed at room temperature in 384-well black polystyrene plate, flat bottom, low flange, non-binding surface (Corning, Cat#3575) using a final reaction volume of 25 μL and the following assay buffer conditions: 60 mM HEPES, pH 7.2, 75 mM NaCl, 75 mM KCl, 1 mM EDTA, 0.05% P-20, 5 mM DTT. The inhibition of SHP2 …

Q: Which IC50 does the source give for `CC1(N)CCN(c2cnc(-c3cccc4cc[nH]c34)c(N)n2)CC1` here?
A: The IC50 was 632 nM.
